# Yeast mating assay B: variants of the scFv Ab-14

All variants were tested on one target, the spike HR2 peptide PDVDLGDISGINAS (SARS-CoV-2).

Parent: Ab-14, a human scFv built as VH, a 15-residue (Gly4Ser)3 linker, VL. Only the CDRs of the heavy chain vary.
VH: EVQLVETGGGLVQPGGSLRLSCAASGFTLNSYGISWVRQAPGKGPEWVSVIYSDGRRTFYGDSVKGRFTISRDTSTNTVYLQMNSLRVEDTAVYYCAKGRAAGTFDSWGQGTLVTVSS
VL: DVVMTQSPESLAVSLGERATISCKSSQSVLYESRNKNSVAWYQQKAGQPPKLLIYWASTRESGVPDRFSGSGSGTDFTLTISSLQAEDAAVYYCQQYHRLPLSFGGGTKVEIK

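Phage display of a naive human antibody library on the peptide gave the parent. Designed CDR sequences, proposed from the first random library and measured here. Several design methods are mixed in this list. The scFvs were displayed on barcoded MATa yeast, the peptide on MATalpha yeast. The frequency of each diploid, read from paired DNA barcodes, reflects how well the two displayed proteins bind. The ratio of observed to expected reads was calibrated, replicate by replicate, on BCL2-family standards whose Kd was known from biolayer interferometry. The assay was run in six technical replicates.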

Each variant is given by its three heavy chain CDRs, as the data file delimits them; those of the parent are GFTLNSYGIS, VIYSDGRRTFYGDSVK, GRAAGTFDS.
Numbers give log10(Kd / nM), so 0 is 1 nM and 3 is 1 µM. Smaller is tighter.
Averages over replicates are reported, and they cover detected replicates only.
Where no diploid with the target was found in any replicate, the entry reads "nd": below detection, most likely a poor binder, though not proof of it.
The list is sorted by this average, lowest first, undetected variants last.
Of ten entries with the parent sequence, four were seen in most replicates (averages 0.34 to 2.37), three in one and three in none, so single entries are noisy.
Values of this round are not directly comparable with the first-round values of the same sequences.
A sequence that the file lists under several names has all its replicates pooled.
In the paper, a design with two or fewer of six values counts as a poor binder.
Background: pairings of all heavy chain designs with three empty control strains gave a value in 1% of cases (median 2.08, 5th percentile 0.84). Values in that range, when seen in few replicates, are hard to tell from nonspecific mating. The control count says in how many pairings with the empty strains this scFv gave a signal.

| mean, log10 nM | seen in | signal with controls | CDR-H1 | CDR-H2 | CDR-H3 |
|---|---|---|---|---|---|
| -0.98 | 6/6 | 0/18 | GFDLDEYGIS | VIYADGRRTFYKDSVK | GTNAGTFDM |
| -0.87 | 6/6 | 0/18 | GFNLNEYGIS | VIYADGMRTFYSDSVK | GETAGTFDN |
| -0.83 | 6/6 | 1/18 | GFTLDEYGIS | VIYADGRRTFYQDSVK | GNVAGTFDQ |
| -0.75 | 6/6 | 0/18 | GFDLNEYGIS | VIYADGMRTYYADNVK | GNVAGTFDV |
| -0.73 | 6/6 | 0/18 | GFDLNEYGIS | VIYADGQRTFYSDSVK | GQTAGTFDA |
| -0.59 | 6/6 | 1/18 | GFDLNEYGIS | VIYADGRRTFYVDSVK | GANAGTFDV |
| -0.57 | 6/6 | 1/18 | GFDLNEYGIS | VIYADGRRKYYADSVK | GENAGTFDV |
| -0.57 | 6/6 | 0/18 | GFDLNEYGIS | VIYADGLRTFYTDSVK | GEIAGTFDV |
| -0.50 | 6/6 | 0/18 | GFDLNEYGIS | VIYADGMRTVYADSVK | GQNAGTFDT |
| -0.48 | 6/6 | 0/18 | GFKLDEYGIS | VIYADGRRTFYADSVK | GEQAGTFDI |
| -0.45 | 6/6 | 0/18 | GFSLDEMGIS | VIYADGQRTAYVDNVK | GVQGMRVWL |
| -0.43 | 6/6 | 1/18 | GFNLNEYGIS | VIYADGRRKFYADSVK | GNQAGTFDV |
| -0.39 | 6/6 | 0/18 | GFELNSYGIS | VIYADGRRTFYGDSVK | GREAGTFDT |
| -0.36 | 6/6 | 0/18 | GFDLEEYGIS | VIYADGMRTAYADSVK | GNVAGTFDT |
| -0.35 | 6/6 | 0/18 | GFDLESYGIS | VIYADGRRTFYSDSVK | GANAGTFDI |
| -0.34 | 6/6 | 0/18 | GFDLNEYGIS | VIYADGMRTAYQDSVK | GNVAGTFDQ |
| -0.33 | 6/6 | 0/18 | GFDLNEYGIS | VIYADGRRTAYIDSVK | GETAGTFDQ |
| -0.32 | 3/6 | 0/18 | GFTLNDYGIS | VIYSDGRRTFYGDSVK | GDAAGTFDL |
| -0.29 | 6/6 | 0/18 | GFDIDEYGIS | VIYADGRRTFYADSVK | GTNAGTFDK |
| -0.28 | 6/6 | 0/18 | GFDINEYGIS | VIYADGRRTAYADSVK | GEAAGTFDA |
| -0.19 | 6/6 | 1/18 | GFDLNEYGIS | VIYADGVRTAYADNVK | GQTAGTFDV |
| -0.16 | 3/6 | 0/18 | GFTLNEYGIS | VIYSDGWRTFYTDSVK | GRAAGTFDS |
| -0.14 | 6/6 | 0/18 | GFDLDEYGIS | VIYADGSRTAYADSVK | GNVAGTFDM |
| -0.11 | 6/6 | 0/18 | GFDLNEYGIS | VIYADGMRTAYADKVK | GENAGTFDI |
| 0.12 | 6/6 | 0/18 | GFELNSYGIS | VIYSDGRRTFYADSVK | GKTAGTFDS |
| 0.20 | 6/6 | 0/18 | GFQLNEYGIS | VIYSDGRRTFYGDSVK | GRNAGTFDS |
| 0.40 | 6/6 | 2/18 | GFTLNSYGIS | VIYSDGRRTFYGDSVK | GRVAGTFDA |
| 0.40 | 6/6 | 0/18 | GFTLNEYGIS | VIYSDGRRTFYSDSVK | GEAAGTFDK |
| 0.43 | 6/6 | 0/18 | GFSLNSYGIS | VIYSDGRRTFYGDSVK | GRARGVFDS |
| 0.56 | 6/6 | 1/18 | GFELNSYGIS | VIYSDGRRTFYGDAVK | GQTAGTFDS |
| 0.57 | 6/6 | 0/18 | GFDLNEYGIS | VIYADGMRTFYDDSVK | GQNAGTFDF |
| 0.58 | 6/6 | 0/18 | GFTLNEYGIS | VIYSDGRRTFYSDSVK | GREAGTFDT |
| 0.81 | 6/6 | 0/18 | GESLNSYGIS | VIYSDGRRTFYADSVK | GRAAGTFNS |
| 0.94 | 6/6 | 0/18 | GFDLNEYGIS | VIYADGMRTAYADSVK | GNEAGTFDL |
| 0.95 | 4/6 | 0/18 | QFTLESYGIS | VIYADGRRTFYGDSVK | GRAAGTFDS |
| 0.97 | 6/6 | 0/18 | GFELNSYGIS | VIYSDGRRTFYIDSVK | GHAAGTFDT |
| 1.00 | 4/6 | 0/18 | GTTLNSYGIS | VIYSDGRRTAYGDRVK | GRAAGTFDS |
| 1.11 | 6/6 | 0/18 | EFDLNNYGIS | VIYADGLRTQYETSVK | GDVAGTFDS |
| 1.20 | 6/6 | 0/18 | GFTLNSYGIS | VIYSDGRRTFYGDSVK | GMNAGTFDT |
| 1.22 | 6/6 | 0/18 | GFTLNMYGIS | VIYSDGRRTFYGDSVK | GRAAGTFDS |
| 1.23 | 10/12 | 2/36 | GFTLNSYGIS | VIYSDGRRTFYGDSVK | GEQAGTFDS |
| 1.24 | 6/6 | 0/18 | GFTLNSYGIS | VIYSDGRRTFYTDSVE | GRAAGTFDS |
| 1.27 | 5/6 | 0/18 | GFTLNSYGIS | VIYSDGRRTFYDDDVK | GQVAGTFDS |
| 1.30 | 4/6 | 0/18 | GFQLNSYGIS | VIYSDGRRTFYKDSVK | GHAAGTFDS |
| 1.35 | 5/6 | 0/18 | GFDLNEYGIS | VIYADGRRTQYIDSVK | GEVAGTFDM |
| 1.48 | 4/6 | 0/18 | GFSLNCYGIS | VIYSDGRRTFYDDSVK | GRFAGTFDS |
| 1.72 | 1/6 | 0/18 | CFTLNSYGIS | VIYSDGRRTFYIDSVK | GRAAGTFDS |
| 2.04 | 1/6 | 0/18 | GFTLNEYGIS | VIYSDGRRTMYSDSVK | GRCAGTFDS |
| 2.51 | 2/6 | 0/18 | GFDLNSYGIS | VIYSDGRRTFYLDSVK | GQAAGTFDS |
| 2.79 | 1/6 | 1/18 | GFTLNDYGIW | VIPSDGRRTQYIDSVK | RRAAGTFDS |
| 3.18 | 1/6 | 2/18 | GDSLEEYGIS | VIYADGRRTAYQESVK | GLYAGMLDV |
| nd | 0/6 | 0/18 | GFTLNSYGIS | VIYSDGLRTFYSDSVK | GGQPGTFFL |
| nd | 0/6 | 0/18 | GFELNTYGIS | VIYSDGRRTFYHDSVK | GKTAGTFDS |
| nd | 0/6 | 0/18 | KFTLNEYGIS | VIYSDGRRTFYIDSVK | GRCAGTFDS |
| nd | 0/6 | 0/18 | GFDLEEYGVS | VIYADGIRFAYAQDFK | GQAAGAFDL |
| nd | 0/6 | 0/18 | GFVFDEYGIS | VIYADGIRQFYQDKVK | GEVTGGFDI |
| nd | 0/6 | 0/18 | GFTLNSYGIS | VIYSDGRRTFYQDSVK | GEAAGTFDT |
| nd | 0/6 | 0/18 | GTTLNSYGKS | VIYSDGRRTFYGNKFK | GRAAGTFDS |
| nd | 0/6 | 0/18 | GFGLDEYGIS | VIYADGMRSAYANSVK | GAHAGGIVW |
| nd | 0/6 | 0/18 | GFHLNSYGIS | VIYSDGYRVAYNDSVK | GRIALTFDS |
| nd | 0/6 | 0/18 | GFTLNSYGIS | VIYSDGRRTFYGDSVK | ERAAATFDS |
| nd | 0/6 | 0/18 | GFVLNSYGIS | VIYFDGQRTFYVDSVK | GRAAGWFNS |
| nd | 0/6 | 0/18 | GFTLNSYGIS | VIYSDGCRTFYSDSVK | GRAALGFDS |
| nd | 0/6 | 0/18 | GMDLNEYGIS | VIYADGLRTAYIDEVK | GKGSVIVGH |
| nd | 0/6 | 0/18 | GFTLNDYGIS | VIYSDMRRTFYGDSVK | GRAAGTLIS |
| nd | 0/6 | 1/18 | GFDLTEYGIS | VIYADGKRSVYTNDVK | GELGLGFVI |
| nd | 0/6 | 0/18 | GFTFNEYGIS | VIYGDGRRTFYGDSVK | GRAAVTFDQ |
| nd | 0/6 | 0/18 | GFTLNSYGIS | VIYSDGRRTFYGDSVK | WWEAGTSDS |
| nd | 0/6 | 0/18 | GFTLNDYGIS | VIYSDGIRTFYGDSVK | GRAALTFIS |
| nd | 0/6 | 0/18 | GDTLNQYGIS | VIYADGRRTFYGDSVK | GRAAGTNKS |
| nd | 0/6 | 0/18 | GFLLNDYGIS | VIYSDGRRTFYGDSVK | GKTAGTFDS |
| nd | 0/6 | 0/18 | GFTLNEYGIS | VIYSDGRRTFYGDSVY | GRAIGRFDS |
| nd | 0/6 | 0/18 | GFPQNEYQIS | VIYADGRRTFYGDSVK | GGAAGTNKS |
| nd | 0/6 | 1/18 | GFTLNSYGIS | VIYRDGRRTFYDDSVK | GQLAKTFDS |
| nd | 0/6 | 0/18 | GCSLNDYGIS | VIYSDGRRTMYIDSVK | GRAAGTFDS |
| nd | 0/6 | 0/18 | GFTLNSYGIS | VIYSDGRRTFYGDSVK | GDKQGTFDS |

Extract of 10 entries:

CDR-H1	CDR-H2	CDR-H3	mean, log10 nM	seen in	signal with controls
GFHLNSYGIS	VIYSDGYRVAYNDSVK	GRIALTFDS	nd	0/6	0/18
GFTLNDYGIW	VIPSDGRRTQYIDSVK	RRAAGTFDS	2.79	1/6	1/18
GFDLNEYGIS	VIYADGMRTYYADNVK	GNVAGTFDV	-0.75	6/6	0/18
GFDLNEYGIS	VIYADGMRTFYDDSVK	GQNAGTFDF	0.57	6/6	0/18
GESLNSYGIS	VIYSDGRRTFYADSVK	GRAAGTFNS	0.81	6/6	0/18
GFSLDEMGIS	VIYADGQRTAYVDNVK	GVQGMRVWL	-0.45	6/6	0/18
GFTLNMYGIS	VIYSDGRRTFYGDSVK	GRAAGTFDS	1.22	6/6	0/18
GFTLNSYGIS	VIYSDGRRTFYGDSVK	WWEAGTSDS	nd	0/6	0/18
GFDLESYGIS	VIYADGRRTFYSDSVK	GANAGTFDI	-0.35	6/6	0/18
GFTLNDYGIS	VIYSDGIRTFYGDSVK	GRAALTFIS	nd	0/6	0/18

The measurements come from Li et al. 2023 (doi:10.1038/s41467-023-39022-2) through the FLAb antibody collection.